Paper PMC5908310 (2018)

What was measured:
EGFR [1] = target: T1, EGFR (Homo sapiens, UniProt P00533); experiment: BLI
EGFR [2] = target: T1, EGFR; experiment: flow

Kd (EGFR [1]): 23 nM
Kd (EGFR [2]): 13 nM
B1: nimotuzumab (antibody, V domains shown)
VH: QVQLQQSGAEVKKPGSSVKVSCKASGYTFTNYYIYWVRQAPGQGLEWIGGINPTSGGSNFNEKFKTRVTITADESSTTAYMELSSLRSEDTAFYFCTRQGLWFDSDGRGFDFWGQGTTVTVSS
VL: DIQMTQSPSSLSASVGDRVTITCRSSQNIVHSNGNTYLDWYQQTPGKAPKLLIYKVSNRFSGVPSRFSGSGSGTDFTFTISSLQPEDIATYYCFQYSHVPWTFGQGTKLQIT
